Assay results from PubChem BioAssay AID727 (The Scripps Research Institute Molecular Screening Center, 2007).
The entries are a selection whose mix differs from that of the whole data set. Active and inactive are the calls of the source. Cut-off read from the data, not from the text of the source: active = inhibition above about 19%; inactive = the rest.

Protein sequences, listed by entry. Tags and fused reporters are not part of them.
UniProt Q05397, whole entry: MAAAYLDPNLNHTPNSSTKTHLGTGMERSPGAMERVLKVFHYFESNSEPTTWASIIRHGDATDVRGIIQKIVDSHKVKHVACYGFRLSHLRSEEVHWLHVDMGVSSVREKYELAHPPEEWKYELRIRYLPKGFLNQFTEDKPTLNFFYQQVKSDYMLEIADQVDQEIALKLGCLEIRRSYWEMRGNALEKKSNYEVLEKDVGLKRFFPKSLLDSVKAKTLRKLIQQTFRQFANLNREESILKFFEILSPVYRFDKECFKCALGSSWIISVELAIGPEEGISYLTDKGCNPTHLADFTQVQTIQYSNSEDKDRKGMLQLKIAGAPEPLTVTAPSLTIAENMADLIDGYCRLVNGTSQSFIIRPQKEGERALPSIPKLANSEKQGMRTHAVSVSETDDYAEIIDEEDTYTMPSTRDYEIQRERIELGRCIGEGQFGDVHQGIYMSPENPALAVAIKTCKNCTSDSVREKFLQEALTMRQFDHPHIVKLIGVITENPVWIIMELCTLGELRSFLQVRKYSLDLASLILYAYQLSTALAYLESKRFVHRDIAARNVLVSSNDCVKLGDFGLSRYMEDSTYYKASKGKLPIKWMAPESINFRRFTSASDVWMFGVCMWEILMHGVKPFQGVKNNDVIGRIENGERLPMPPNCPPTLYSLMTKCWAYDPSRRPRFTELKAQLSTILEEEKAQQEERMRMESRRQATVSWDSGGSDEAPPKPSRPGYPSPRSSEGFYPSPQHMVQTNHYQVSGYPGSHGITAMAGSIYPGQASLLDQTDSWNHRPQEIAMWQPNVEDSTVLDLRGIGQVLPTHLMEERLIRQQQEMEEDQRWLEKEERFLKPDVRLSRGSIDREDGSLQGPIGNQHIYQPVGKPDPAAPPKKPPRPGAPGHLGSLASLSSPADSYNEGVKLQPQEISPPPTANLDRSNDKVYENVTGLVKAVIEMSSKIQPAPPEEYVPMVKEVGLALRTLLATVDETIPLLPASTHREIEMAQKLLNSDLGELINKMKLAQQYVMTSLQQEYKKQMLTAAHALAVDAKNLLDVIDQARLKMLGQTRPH

Biological target: Focal adhesion kinase 1 (Homo sapiens) (UniProt Q05397)
Experiment: FAK kinase inhibitors, primary screen, biochemical (AID 727);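 note: 0% = DMSO and 100% = reference compound high control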
Conditions: biochemical FAK kinase activity assay; hits give high values;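 tested at 7 µM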

Row | Structure (SMILES) | inhibition
1 | Cc1nc2ccc3ccccc3c2s1.O=[N+]([O-])c1cc([N+](=O)[O-])c(O)c([N+](=O)[O-])c1 | inactive: 5.29%
2 | COc1ccccc1OP(C)(=O)Nc1c(C)cccc1C (stereo not given) | inactive: -1.03%
3 | Cc1cc(C)cc(OP(C)(=O)Nc2ccccn2)c1 (stereo not given) | inactive: -1.07%
4 | Cc1ccc(C)c(NP(C)(=O)Oc2ccccc2)c1 (stereo not given) | inactive: 1.99%
5 | Cc1cc(C)cc(OP(C)(=O)Nc2ccc(C)cc2C)c1 (stereo not given) | inactive: 1.07%
6 | COc1ccc(OP(C)(=O)Nc2cccc(F)c2)cc1 (stereo not given) | inactive: -1.6%
7 | CP(=S)(Nn1cnnc1)Oc1ccccc1 (stereo not given) | inactive: 2.57%
8 | CP(=O)(Nc1ccccn1)Oc1ccc(Cl)cc1 (stereo not given) | inactive: -1.37%
9 | CP(=O)(NC(=O)Nc1ccccc1)Oc1ccccc1 (stereo not given) | inactive: 3.65%
10 | CP(=O)(Nc1ccc(Cl)cc1)Oc1ccc(F)cc1 (stereo not given) | inactive: -1.6%
11 | CC(C)(C)c1ccc(OP(C)(=O)O)cc1 | inactive: -0.28%
12 | CCN(CC)CC(O)COC(=O)C(O)(c1ccccc1)C1CCCCC1 (stereo not given) | inactive: 0.6%
13 | CP(=O)(Oc1ccccc1)N1CCOC1=O (stereo not given) | inactive: -1.19%
14 | COc1ccccc1OP(C)(=O)Nc1c(C)n(C)n(-c2ccccc2)c1=O (stereo not given) | inactive: -1.94%
15 | CP(=O)(OC12CC3CC(CC(C3)C1)C2)OC12CC3CC(CC(C3)C1)C2 | inactive: 0.36%
16 | Cc1nc2ccc3ccccc3c2o1.O=[N+]([O-])c1cc([N+](=O)[O-])c(O)c([N+](=O)[O-])c1 | inactive: -4.16%
17 | COc1ccccc1OP(C)(=O)Nc1ccc(C)c(C)c1 (stereo not given) | inactive: -2.33%
18 | Cc1c(NP(C)(=O)Oc2ccc(C(C)C)cc2)c(=O)n(-c2ccccc2)n1C (stereo not given) | inactive: 3.07%
19 | CCc1ccc(OP(C)(=O)O)cc1 | inactive: -5.27%
20 | COc1ccccc1OP(C)(=O)Nc1ccc(C)cc1C (stereo not given) | inactive: 2.51%
21 | CP(=O)(Nc1ccccn1)Oc1ccccc1 (stereo not given) | inactive: 0.9%
22 | CN(C)CCOC(=O)C(O)(c1ccccc1)C1CCCC1 (stereo not given) | inactive: 0.23%
23 | COc1ccc(OP(C)(=O)Nc2ccccn2)cc1 (stereo not given) | inactive: -1.31%
24 | CP(=O)(Nc1ccccc1F)Oc1ccccc1 (stereo not given) | inactive: -0.99%
25 | CCN(CC)CCCOC(=O)C(O)(c1ccccc1)C1CCCCC1 (stereo not given) | inactive: -0.42%
26 | CP(=O)(Nc1ccccc1)Oc1ccc(F)cc1 (stereo not given) | inactive: 0.09%
27 | COc1ccc(OP(C)(=O)Nc2cccc(Br)c2)cc1 (stereo not given) | inactive: -2.4%
28 | CN(C)CCOC(=O)C(O)(c1ccccc1)C1CCCCC1 (stereo not given) | inactive: -7.03%
29 | CP(=O)(Nc1ccc2c(c1)OCCO2)Oc1ccccc1 (stereo not given) | inactive: -3.14%
30 | CCOP(C)(=S)SCC(=O)NC(C)(CC)C(=O)O (stereo not given) | inactive: -0.72%
